Shown are actives, neighbours in structure and some others; about 2.3% of the full set was active somewhere.
Nrf2 activator: activates Nrf2 signaling; AREc32 ARE-luciferase reporter (MCF7-derived line), luminescence, 24 h; Potency, µM (highest dose often 46.1 µM), for inactives: at the highest dose activation, hits mostly activators; 410,000 compounds, 0.31% hits; note: potency is the fitted concentration of half-maximal effect; % of control where 0% means no effect; nearly all actives have a fitted effect of over 65% in size
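Quantitative high-throughput format: AREc32 reporter cells, 1000 per well, received compound by pin transfer and were incubated 24 hr at 37 deg C, 5% CO2, before Steady-Glo luminescence detection.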
A549 tox-1: counter-screen for Nrf2 inhibitors: cytotoxicity in A549 cells; Potency, µM (doses to about 46 µM), for the others: top-dose activity change, negative = cytotoxicity, hits mostly inhibitors; A549 ARE-Fluc cells, CellTiter-Fluor viability, 18-24 h; 390,000 compounds, 0.16% hits; AID 504648; note: potency is the fitted concentration of half-maximal effect; % is set by controls: 0 for no effect and ±100 for the full control effect
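A549 ARE-Fluc cells in 5% FBS OPTI-MEM, 5000 cells/well, rested 2 h then exposed to compounds in concentration-response for 18-24 h at 37 °C. Viability by CellTiter-Fluor fluorescence (Ex 405/Em 525) after 30 min; luciferase luminescence (BugLite, 15 min, RT) read afterwards.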
Mito fusion yeast: mitochondrial division inhibition or fusion activation | S. cerevisiae fusion-defective mutant growth rescue, CellTiterGlo 48 h | Potency, µM (titrated, usually from 46.1 µM), inactives show at the top dose growth rescue (activation), most hits filed as activators | 320,000 compounds, 0.23% hits | AID 485298; note: potency is the fitted concentration of half-maximal effect; % of control where 0% means no effect; nearly all actives have a fitted effect of over 45% in size
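Yeast fusion mutant, YPEG (non-fermentable carbon), compound, 48 h at 37C non-permissive; CellTiterGlo added, 10 min RT, luminescence read. Rescued growth = division inhibition.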
Nrf2 inh: blocks Nrf2 signaling; A549 ARE-Fluc reporter, luciferase luminescence, 18-24 h; Potency, µM (series often up to 46 µM), for inactives: top-dose activity change, negative = inhibition, most hits filed as inhibitors; 360,000 compounds, 2.1% hits; AID 504444; note: potency is the fitted concentration of half-maximal effect; % is set by controls: 0 for no effect and ±100 for the full control effect; nearly all actives have a fitted effect of over 60% in size
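Reporter: ARE-Fluc in A549. Exposure: 18-24 h, 37 °C, 5% CO2, 5% FBS OPTI-MEM. Readouts: fluorescent cytotoxicity (CellTiter-Fluor), then luminescent Nrf2 signal after BugLite.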
miR-21 reporter: raises the signal of a miR-21 reporter | HeLa miR-21 FLuc reporter, luciferase, 48 h | Potency, µM (highest dose often 38.3 µM), for inactives: at the highest dose reporter change, positive = more light | 340,000 tested, under 10 active | AID 2288; active = well fitted rising curve with a large enough effect; inconclusive = small, poorly fitted or top-dose-only effect; inactive = no such curve, though single readings can be large or run the other way;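 also: % of control where 0% means no effect; miR-21 action dims this reporter so a rising signal means less miR-21 action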
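Using DMEM plus 10% FBS, HeLa miR-21-FLuc cells are incubated with test compounds (final up to about 40uM) for 48 hours; firefly luciferase signal is then imaged following reagent-mediated lysis.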
FLuc enzyme inh: blocks purified firefly luciferase in Nrf2 counterscreen. 1,400 compounds, 4% hits. Potency, µM (series often up to 57.5 µM), for inactives: at the highest dose activity change, negative = inhibition, actives largely listed as inhibitors. purified firefly luciferase, luminescence inhibition. shares compounds with Nrf2 inh; note: potency is the fitted concentration of half-maximal effect; % is set by controls: 0 for no effect and ±100 for the full control effect; nearly all actives have a fitted effect of over 65% in size
A549 tox-2: counter-screen for Nrf2 inhibitors: cytotoxicity in A549 ARE cells | shares compounds with Nrf2 inh | A549 ARE-Fluc cells, cytotoxicity counterscreen | 1,400 compounds, 2% hits | Potency, µM (top dose mostly 46.1 µM), without a hit: top-dose activity change, negative = cytotoxicity, actives largely listed as inhibitors;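 note: potency is the fitted concentration of half-maximal effect; cells exposed to compounds for 18 to 24 hours; % is set by controls: 0 for no effect and ±100 for the full control effect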
ARE-Fluc inh: Nrf2 inhibition confirmed, A549 ARE-luciferase | shares compounds with Nrf2 inh | A549 ARE-firefly luciferase reporter, luminescence | Potency, µM (top dose mostly 46.1 µM), for inactives: at the top dose activity change, negative = inhibition, hits mostly inhibitors | 1,400 compounds, 74% hits; note: potency is the fitted concentration of half-maximal effect; % is set by controls: 0 for no effect and ±100 for the full control effect; nearly all actives have a fitted effect of over 65% in size
Numbers without * were called inactive. Unless noted, calls come from the whole dose curve; as a rule, active = well fitted curve in the direction sought with a large enough effect; inconclusive = small, poorly fitted or top-dose-only effect, or another doubt; inactive = no such curve, though single readings can be large; an effect the other way counts as inactive or inconclusive.

For COc1cccc(-c2ncc3ccccc3c2COC(=O)N2CCCCC2)c1 the results were Nrf2 activator 3.2%, A549 tox-1 -2.1%, Mito fusion yeast inconclusive, Nrf2 inh 5.8µM*, FLuc enzyme inh -21.9%, A549 tox-2 -0.7% and ARE-Fluc inh inconclusive.
`Cn1c(=O)c2c(SCC(=O)N3CCc4ccccc43)nc(-c3ccccc3Cl)nc2n(C)c1=O` gave Nrf2 activator -0.8%, A549 tox-1 13.0% and miR-21 reporter -2.7%.
`CN(CCOc1ccc(Cl)cc1)C(=O)c1cccc(S(=O)(=O)N2CCN(Cc3ccccc3)CC2)c1` gave Nrf2 activator 0.3%, A549 tox-1 -10.0%, Nrf2 inh 8.2µM*, FLuc enzyme inh -0.1%, A549 tox-2 -29.1% and ARE-Fluc inh 9.2µM*.
`COc1ccccc1CN(C)C(=O)c1cccc(S(=O)(=O)N2CCN(Cc3ccccc3)CC2)c1` gave Nrf2 activator 2.2%, A549 tox-1 -0.8%, Mito fusion yeast 18.4% and Nrf2 inh -12.3%.
`CSc1ccc(CN(C)C(=O)c2cccc(S(=O)(=O)N3CCN(Cc4ccccc4)CC3)c2)cc1` gave Nrf2 activator 0.4%, A549 tox-1 -15.6%, Mito fusion yeast 20.1%, Nrf2 inh 5.8µM*, FLuc enzyme inh 0.8%, A549 tox-2 12.6% and ARE-Fluc inh inconclusive.
`CCOc1ccc(NC(=O)Cn2cnc3c(oc4ccccc43)c2=O)cc1` gave Nrf2 activator 0.5%, A549 tox-1 -16.3%, Nrf2 inh inconclusive and miR-21 reporter -12.5%.
COc1ccc2ccc3cccc[n+]3c2c1 was read as Nrf2 activator 4.0%, A549 tox-1 -11.8%, Nrf2 inh 4.61µM*, FLuc enzyme inh -2.0%, A549 tox-2 -13.9% and ARE-Fluc inh 23.1µM*.
For CN(C)c1cc[n+](CC(=O)Nc2ccc(Cl)c([N+](=O)[O-])c2)cc1 the results were Nrf2 activator -0.5%, A549 tox-1 -3.2%, Mito fusion yeast -3.1%, Nrf2 inh 4.61µM*, miR-21 reporter 29.1%, FLuc enzyme inh -0.4%, A549 tox-2 -5.2% and ARE-Fluc inh 8.2µM*.
`Cn1c(=O)c2c(nc(N3CCOCC3)n2Cc2cccc(Br)c2)n(C)c1=O` gave Nrf2 activator 1.1%, A549 tox-1 -8.6%, Nrf2 inh -27.7% and miR-21 reporter -24.1%.
For CC(=O)N(C(C)=O)c1ncc2c([nH]c3ccccc32)c1C#N the results were Nrf2 activator -0.3%, A549 tox-1 -15.4%, Mito fusion yeast 3.5%, Nrf2 inh 8.2µM*, miR-21 reporter 20.5%, FLuc enzyme inh -18.1% and A549 tox-2 -10.6%.
O=C(Nc1ccc2nc(SCCOc3ccccc3Cl)sc2c1)c1cccs1 was read as Nrf2 activator 2.1%, A549 tox-1 0.0%, Nrf2 inh 9.2µM*, miR-21 reporter 13.4%, FLuc enzyme inh -18.3%, A549 tox-2 -3.4% and ARE-Fluc inh 8.2µM*.
For Cc1ccc(NC(=O)C(Cc2c[nH]c3ccccc23)NC(=O)OC(C)(C)C)c(C)c1 (stereo unspecified) the results were Nrf2 activator -0.5%, A549 tox-1 -9.0%, Nrf2 inh 8.3% and miR-21 reporter -2.3%.
`Cc1ccc(S(=O)(=O)N(C)Cc2ccc(C(=O)N/N=C/c3ccc(OC(F)F)cc3)cc2)cc1` gave Nrf2 activator 2.4%, A549 tox-1 -6.1%, Mito fusion yeast 5.1%, Nrf2 inh 5.8µM*, miR-21 reporter -0.5%, FLuc enzyme inh 2.8%, A549 tox-2 -10.5% and ARE-Fluc inh 6.51µM*.
`CC1(c2ccc3ccccc3c2)NC(=O)N(CC(=O)N2CCC(C(N)=O)CC2)C1=O` (stereo unspecified) gave Nrf2 activator 0.7%, A549 tox-1 0.3%, Mito fusion yeast -0.1% and Nrf2 inh -16.2%.
`CC1(c2ccc3ccccc3c2)NC(=O)N(CC(=O)N2CCN(Cc3ccccc3)CC2)C1=O` (stereo unspecified) gave Nrf2 activator 2.7%, A549 tox-1 inconclusive, Mito fusion yeast 3.6%, Nrf2 inh 1.3µM*, FLuc enzyme inh 2.4%, A549 tox-2 -5.4% and ARE-Fluc inh 4.61µM*.

Reprinted from the part before: three entries, followed by the next part.
`Cc1ccc(S(=O)(=O)N(C)Cc2ccc(C(=O)N/N=C/c3ccc(OC(F)F)cc3)cc2)cc1` gave Nrf2 activator 2.4%, A549 tox-1 -6.1%, Mito fusion yeast 5.1%, Nrf2 inh 5.8µM*, miR-21 reporter -0.5%, FLuc enzyme inh 2.8%, A549 tox-2 -10.5% and ARE-Fluc inh 6.51µM*.
`CC1(c2ccc3ccccc3c2)NC(=O)N(CC(=O)N2CCC(C(N)=O)CC2)C1=O` (stereo unspecified) gave Nrf2 activator 0.7%, A549 tox-1 0.3%, Mito fusion yeast -0.1% and Nrf2 inh -16.2%.
`CC1(c2ccc3ccccc3c2)NC(=O)N(CC(=O)N2CCN(Cc3ccccc3)CC2)C1=O` (stereo unspecified) gave Nrf2 activator 2.7%, A549 tox-1 inconclusive, Mito fusion yeast 3.6%, Nrf2 inh 1.3µM*, FLuc enzyme inh 2.4%, A549 tox-2 -5.4% and ARE-Fluc inh 4.61µM*.
Screening Cc1ccc(F)cc1NC(=O)N1CCN(c2ccnc3cc(Cl)ccc23)CC1 returned Nrf2 activator -0.9%, A549 tox-1 -16.9%, Mito fusion yeast 4.3%, Nrf2 inh 9.2µM*, miR-21 reporter 9.7%, FLuc enzyme inh -1.4%, A549 tox-2 -3.0% and ARE-Fluc inh 9.2µM*.
Cc1ccccc1CCNC(=O)c1ccc(NC(=O)N2CC(C)Sc3ccccc32)cc1 (stereo unspecified) was read as Nrf2 activator 3.6%, A549 tox-1 -0.8%, Nrf2 inh inconclusive and miR-21 reporter -1.7%.
O=C(Oc1ccc(N(Cc2cccs2)C2=NS(=O)(=O)c3ccccc32)cc1)c1ccccc1Cl was read as Nrf2 activator -0.6%, A549 tox-1 -5.1%, Mito fusion yeast -7.0%, Nrf2 inh 1.03µM*, miR-21 reporter 0.7%, FLuc enzyme inh -2.2%, A549 tox-2 -1.3% and ARE-Fluc inh 3.66µM*.
O=C(Oc1ccc(N(Cc2cccs2)C2=NS(=O)(=O)c3ccccc32)cc1)c1ccco1 was read as Nrf2 activator 0.0%, A549 tox-1 -0.4%, Mito fusion yeast 15.6%, Nrf2 inh -21.7% and miR-21 reporter 0.9%.
For Cc1cc(C)c(NC(=O)C(=O)NCCc2csc(-c3ccc(F)cc3)n2)c(C)c1 the results were Nrf2 activator 0.4%, A549 tox-1 -16.8% and miR-21 reporter 18.1%.
Screening Cn1c(=O)c2c(nc(NCc3ccco3)n2C/C=C/c2ccccc2)n(C)c1=O returned Nrf2 activator 5.0%, A549 tox-1 inconclusive, Mito fusion yeast 3.1%, Nrf2 inh 4.11µM*, miR-21 reporter 17.7%, FLuc enzyme inh 0.2%, A549 tox-2 -18.9% and ARE-Fluc inh 7.31µM*.
CSc1ccc(CCNC(=O)Cn2ccc3cc(S(=O)(=O)N4CCCCCC4)ccc32)cc1 was read as Nrf2 activator 2.4%, A549 tox-1 -9.7%, Nrf2 inh inconclusive and miR-21 reporter 7.1%.

Screening data (PubChem)
